Biological target: GS-TAP-tagged Optn (human) (UniProt Q96CV9)
Assay: TAP of GS-tagged Optn from HEK-293 cells, LC-MSMS

sequence coverage: 0.3 | unique peptide counts: 4
Sequence: UBIQUITIN AND RIBOSOMAL PROTEIN S27A PRECURSOR.
